Assay results taken from BindingDB's records for doi:10.1021/jm050786h (Astrazeneca, 2006).

Chains of the proteins cited; added tags and fusions are not shown.
UniProt P53350, whole entry: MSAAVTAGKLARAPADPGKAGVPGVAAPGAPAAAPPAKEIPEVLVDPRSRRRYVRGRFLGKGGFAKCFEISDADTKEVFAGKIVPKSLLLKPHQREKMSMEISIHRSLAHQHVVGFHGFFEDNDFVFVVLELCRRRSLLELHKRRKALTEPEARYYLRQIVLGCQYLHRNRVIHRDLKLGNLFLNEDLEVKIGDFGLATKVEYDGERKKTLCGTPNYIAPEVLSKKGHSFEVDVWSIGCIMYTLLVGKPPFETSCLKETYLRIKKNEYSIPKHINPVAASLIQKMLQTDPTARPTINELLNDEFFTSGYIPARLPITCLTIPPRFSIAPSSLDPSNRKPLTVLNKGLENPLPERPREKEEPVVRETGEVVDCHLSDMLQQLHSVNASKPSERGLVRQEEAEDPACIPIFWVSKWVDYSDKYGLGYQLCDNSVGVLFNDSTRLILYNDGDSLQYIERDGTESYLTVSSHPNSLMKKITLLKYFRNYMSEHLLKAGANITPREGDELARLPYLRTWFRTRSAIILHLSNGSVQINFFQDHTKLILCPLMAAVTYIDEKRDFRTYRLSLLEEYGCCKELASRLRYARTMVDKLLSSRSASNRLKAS
UniProt P06493, whole entry: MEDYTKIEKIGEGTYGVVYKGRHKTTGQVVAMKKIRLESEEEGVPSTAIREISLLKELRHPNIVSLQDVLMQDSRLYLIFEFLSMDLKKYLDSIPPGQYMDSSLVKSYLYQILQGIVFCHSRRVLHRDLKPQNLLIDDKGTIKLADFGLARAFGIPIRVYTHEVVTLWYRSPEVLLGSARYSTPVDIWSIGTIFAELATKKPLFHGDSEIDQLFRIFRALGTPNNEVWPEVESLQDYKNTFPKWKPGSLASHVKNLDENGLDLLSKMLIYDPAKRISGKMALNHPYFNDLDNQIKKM

Tests used:
[1] = biological target: Serine/threonine-protein kinase PLK1 (Homo sapiens, UniProt P53350)
[2] = biological target: Cyclin-dependent kinase 1 (Homo sapiens, UniProt P06493)

## COc1cc2c(Nc3ccc(NC(=O)c4ccccc4)cc3)ncnc2cc1OCCCN1CCOCC1 [N-[4-({6-methoxy-7-[3-(morpholin-4-yl)propoxy]quinazolin-4-yl}amino)phenyl]benzamide]
[1]
  IC50: > 10 µM
[2]
  IC50: > 10 µM
